From patent US20050221478A1, “Control of es cell self renewal and lineage specification, and medium therefor” (University of Edinburgh, priority 2002, published 2005)

Test system: ES cells
Experiment: Self-renewal of pluripotent cells with agonists of a receptor of the TGF-β superfamily or FGF receptor inhibitor
Format: cell-based

B1: BMP2: bone morphogenetic protein, known homologue of BMP4 (protein, UniProt P12643 283-396, looked up)
Bone morphogenetic protein 2: QAKHKQRKRLKSSCKRHPLYVDFSDVGWNDWIVAPPGYHAFYCHGECPFPLADHLNSTNHAIVQTLVNSVNSKIPKACCVPTELSAISMLYLDENEKVVLKNYQDMVVEGCGCR
result as agonist of a receptor of the TGF-β superfamily for self-renewal: Good results
